Test results published in US20080125475A1 (priority 2006, published 2008).

Assays:
[1] = tested on: Sprague-Dawley rats; conditions: rat, in vivo
[2] = tested on: rats; conditions: rat, in vivo
[3] = tested on: rat; conditions: in vivo

Row | SMILES | course of antihyperalgesic and antinociceptive action over the investigation period [1] | efficacy once neuropathy has developed compared with naive/sham operated animals [2] | separation of anti-hyperalgesic and antinociceptive action [3]
1 | CN1CC[C@]23c4c5ccc(O)c4O[C@H]2[C@@H](O)C=C[C@H]3[C@H]1C5 [Compound B3, morphine] | slightly declining antihyperalgesic action and an unchanging antinociceptive action; also recorded: slight decline in the antihyperalgesic action or a constant antinociceptive action | efficacy of morphine declines; also recorded: comparatively distinctly less | 
2 | CC(C)C[C@H](CN)CC(=O)O [pregabalin] |  |  | anti-hyperalgesic action is first to be observed in a dose range in which an antinociceptive action also emerges in the control group; also recorded: efficacy against diabetic polyneuropathy pain only in a dose range in which an antinociceptive effect is also to be observed

“Also recorded” adds a separate entry of the source.
